# pIC50: −log10 of the molar value.
# Amino acid sequences for entries named in this document (tags omitted). Residues count along the entry.
# UniProt Q9H2K2, 849-1166: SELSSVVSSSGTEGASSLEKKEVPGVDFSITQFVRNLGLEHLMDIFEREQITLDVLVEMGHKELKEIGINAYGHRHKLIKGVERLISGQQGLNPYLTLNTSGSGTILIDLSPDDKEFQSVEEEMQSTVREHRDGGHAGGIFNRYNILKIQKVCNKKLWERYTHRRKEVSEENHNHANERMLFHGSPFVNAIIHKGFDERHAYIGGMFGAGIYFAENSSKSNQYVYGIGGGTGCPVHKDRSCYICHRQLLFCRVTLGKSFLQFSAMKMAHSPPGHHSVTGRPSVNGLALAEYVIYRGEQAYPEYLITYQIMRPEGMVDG
# Molecular target: T1, tankyrase-2 enzyme (Homo sapiens, UniProt Q9H2K2)
# T1 construct: purchased BPS Bioscience 80578
# Assay: Inhibition test of tankyrase-2 enzyme (BPS Bioscience kit)
# Assay type: biochemical
# Settings: tankyrase-2 enzyme 15 ng/well, 25° C. for 1 hour; read-out: IC50 (tankyrase-2 enzyme inhibitory activity)
smiles,measurement,value
"Cn1ncnc1[C@H]1c2n[nH]c(=O)c3cc(F)cc(c23)N[C@@H]1c1ccc(F)cc1 [BMN-673 (Talazoparib), Talazoparib]",pIC50,8.60

# Reference: patent US20240246933A1, “CRYSTALLINE FORM OF TRICYCLIC DERIVATIVE COMPOUND, METHOD FOR PREPARING SAME, AND PHARMACEUTICAL COMPOSITION COMPRISING SAME” (ONCONIC THERAPEUTICS INC., priority 2021, published 2024)
